The results in this text go back to publication PMC8403742, “A single point mutation causes one-way alteration of pheromone receptor function in two Heliothis species” (iScience, 2021).

The test system of the assay is chimeric OR6s (VSV and SVS). The experiment in a line: Chimeric OR6s VSV and SVS co-expressed with HvirOrco in Xenopus oocytes. As to conditions: 10^-4 M, chimeras VSV and SVS.

For `CCCC/C=C\CCCCCCCC=O` [Z9-14:Ald, (Z)-9-tetradecenal], the “response of chimeric OR6s compared with original sequences (VVV and SSS)” value is “did not change significantly”.
